Measured values from ChEMBL document CHEMBL1821689, “1,6-Disubstituted indole derivatives as selective human neuronal nitric oxide synthase inhibitors” (Bioorg Med Chem Lett, 2011).

By UniProt entry, the sequences of proteins in these tests, tags left out.
UniProt P29475, whole entry: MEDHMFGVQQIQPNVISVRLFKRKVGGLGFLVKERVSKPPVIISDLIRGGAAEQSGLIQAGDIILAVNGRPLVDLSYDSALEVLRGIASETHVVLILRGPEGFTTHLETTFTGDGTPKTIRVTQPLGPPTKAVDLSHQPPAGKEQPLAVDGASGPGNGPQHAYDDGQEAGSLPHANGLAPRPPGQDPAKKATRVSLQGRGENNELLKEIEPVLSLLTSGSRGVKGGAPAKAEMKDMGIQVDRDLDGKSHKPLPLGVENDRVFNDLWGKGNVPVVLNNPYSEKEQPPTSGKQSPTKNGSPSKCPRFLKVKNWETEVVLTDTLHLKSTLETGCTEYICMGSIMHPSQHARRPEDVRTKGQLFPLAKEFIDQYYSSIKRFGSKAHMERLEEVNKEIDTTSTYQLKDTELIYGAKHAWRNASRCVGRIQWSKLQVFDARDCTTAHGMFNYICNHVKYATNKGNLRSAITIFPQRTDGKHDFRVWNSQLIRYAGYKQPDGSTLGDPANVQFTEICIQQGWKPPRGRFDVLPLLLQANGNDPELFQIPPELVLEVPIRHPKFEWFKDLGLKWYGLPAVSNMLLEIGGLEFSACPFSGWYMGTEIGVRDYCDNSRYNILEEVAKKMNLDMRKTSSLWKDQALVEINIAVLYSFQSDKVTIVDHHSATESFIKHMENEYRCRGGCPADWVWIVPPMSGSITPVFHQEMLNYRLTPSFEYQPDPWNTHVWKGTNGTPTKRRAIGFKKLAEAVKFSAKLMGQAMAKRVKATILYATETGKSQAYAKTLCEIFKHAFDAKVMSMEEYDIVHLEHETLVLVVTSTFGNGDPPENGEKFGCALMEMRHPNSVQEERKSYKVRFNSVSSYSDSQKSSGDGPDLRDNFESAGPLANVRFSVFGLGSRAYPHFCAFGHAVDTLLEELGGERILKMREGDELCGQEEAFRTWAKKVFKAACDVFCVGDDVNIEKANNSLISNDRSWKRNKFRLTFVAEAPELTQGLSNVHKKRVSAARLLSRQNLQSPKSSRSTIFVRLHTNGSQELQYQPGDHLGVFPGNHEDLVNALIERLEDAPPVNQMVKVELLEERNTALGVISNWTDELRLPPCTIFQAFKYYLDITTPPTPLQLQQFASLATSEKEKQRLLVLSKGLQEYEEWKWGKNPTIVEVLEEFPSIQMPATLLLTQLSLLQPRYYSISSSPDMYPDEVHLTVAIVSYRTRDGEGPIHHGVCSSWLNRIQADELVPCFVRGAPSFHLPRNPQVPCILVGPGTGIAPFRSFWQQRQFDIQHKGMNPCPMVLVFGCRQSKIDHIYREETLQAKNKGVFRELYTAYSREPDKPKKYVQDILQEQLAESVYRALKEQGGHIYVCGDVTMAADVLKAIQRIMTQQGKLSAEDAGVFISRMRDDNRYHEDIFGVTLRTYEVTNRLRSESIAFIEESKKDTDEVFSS
UniProt P35228, whole entry, looked up: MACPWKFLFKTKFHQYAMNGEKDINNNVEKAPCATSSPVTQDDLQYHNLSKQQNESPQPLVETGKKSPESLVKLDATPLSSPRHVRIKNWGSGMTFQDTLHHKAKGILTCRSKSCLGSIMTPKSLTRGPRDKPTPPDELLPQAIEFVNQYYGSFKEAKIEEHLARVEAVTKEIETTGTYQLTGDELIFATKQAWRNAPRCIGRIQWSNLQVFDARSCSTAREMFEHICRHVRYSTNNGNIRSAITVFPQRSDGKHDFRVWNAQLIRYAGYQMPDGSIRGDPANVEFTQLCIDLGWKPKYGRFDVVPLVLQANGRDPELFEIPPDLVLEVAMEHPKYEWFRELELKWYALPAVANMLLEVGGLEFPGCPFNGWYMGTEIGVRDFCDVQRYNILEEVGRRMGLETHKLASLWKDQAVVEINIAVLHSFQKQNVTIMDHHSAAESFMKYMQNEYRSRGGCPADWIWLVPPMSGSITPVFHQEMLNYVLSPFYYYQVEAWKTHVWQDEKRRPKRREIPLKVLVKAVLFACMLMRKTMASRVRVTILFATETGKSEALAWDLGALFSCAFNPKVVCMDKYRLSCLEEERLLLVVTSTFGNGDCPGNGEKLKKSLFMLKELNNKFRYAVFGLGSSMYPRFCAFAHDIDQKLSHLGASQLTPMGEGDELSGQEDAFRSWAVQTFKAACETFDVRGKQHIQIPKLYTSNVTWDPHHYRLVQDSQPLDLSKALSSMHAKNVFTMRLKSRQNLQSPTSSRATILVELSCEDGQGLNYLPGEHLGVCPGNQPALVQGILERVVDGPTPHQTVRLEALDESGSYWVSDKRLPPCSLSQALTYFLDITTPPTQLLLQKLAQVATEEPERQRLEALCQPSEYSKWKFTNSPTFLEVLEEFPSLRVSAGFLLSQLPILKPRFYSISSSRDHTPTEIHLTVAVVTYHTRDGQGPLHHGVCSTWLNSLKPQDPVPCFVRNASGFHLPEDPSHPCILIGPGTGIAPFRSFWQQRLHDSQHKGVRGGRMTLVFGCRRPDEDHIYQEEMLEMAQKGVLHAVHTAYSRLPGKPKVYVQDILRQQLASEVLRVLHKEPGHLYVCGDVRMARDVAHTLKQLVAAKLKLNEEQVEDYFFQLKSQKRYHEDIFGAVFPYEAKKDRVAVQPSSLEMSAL

Legend:
[1] = species: Homo sapiens; test: Selectivity ratio of IC50 for recombinant human eNOS to IC50 for recombinant human nNOS
[2] = molecular target: Nitric oxide synthase 1 (Homo sapiens, UniProt P29475); test: Inhibition of recombinant human nNOS expressed in baculovirus infected insect Sf9 cells assessed as conversion of [3H]-L-arginine into [3H]-L-citrulline by radiometric method
[3] = molecular target: T1, Nitric oxide synthase 3 (Homo sapiens, UniProt P29474); test: Inhibition of recombinant human eNOS expressed in baculovirus infected insect Sf9 cells assessed as conversion of [3H]-L-arginine into [3H]-L-citrulline by radiometric method
T1 sequence (P29474 whole entry): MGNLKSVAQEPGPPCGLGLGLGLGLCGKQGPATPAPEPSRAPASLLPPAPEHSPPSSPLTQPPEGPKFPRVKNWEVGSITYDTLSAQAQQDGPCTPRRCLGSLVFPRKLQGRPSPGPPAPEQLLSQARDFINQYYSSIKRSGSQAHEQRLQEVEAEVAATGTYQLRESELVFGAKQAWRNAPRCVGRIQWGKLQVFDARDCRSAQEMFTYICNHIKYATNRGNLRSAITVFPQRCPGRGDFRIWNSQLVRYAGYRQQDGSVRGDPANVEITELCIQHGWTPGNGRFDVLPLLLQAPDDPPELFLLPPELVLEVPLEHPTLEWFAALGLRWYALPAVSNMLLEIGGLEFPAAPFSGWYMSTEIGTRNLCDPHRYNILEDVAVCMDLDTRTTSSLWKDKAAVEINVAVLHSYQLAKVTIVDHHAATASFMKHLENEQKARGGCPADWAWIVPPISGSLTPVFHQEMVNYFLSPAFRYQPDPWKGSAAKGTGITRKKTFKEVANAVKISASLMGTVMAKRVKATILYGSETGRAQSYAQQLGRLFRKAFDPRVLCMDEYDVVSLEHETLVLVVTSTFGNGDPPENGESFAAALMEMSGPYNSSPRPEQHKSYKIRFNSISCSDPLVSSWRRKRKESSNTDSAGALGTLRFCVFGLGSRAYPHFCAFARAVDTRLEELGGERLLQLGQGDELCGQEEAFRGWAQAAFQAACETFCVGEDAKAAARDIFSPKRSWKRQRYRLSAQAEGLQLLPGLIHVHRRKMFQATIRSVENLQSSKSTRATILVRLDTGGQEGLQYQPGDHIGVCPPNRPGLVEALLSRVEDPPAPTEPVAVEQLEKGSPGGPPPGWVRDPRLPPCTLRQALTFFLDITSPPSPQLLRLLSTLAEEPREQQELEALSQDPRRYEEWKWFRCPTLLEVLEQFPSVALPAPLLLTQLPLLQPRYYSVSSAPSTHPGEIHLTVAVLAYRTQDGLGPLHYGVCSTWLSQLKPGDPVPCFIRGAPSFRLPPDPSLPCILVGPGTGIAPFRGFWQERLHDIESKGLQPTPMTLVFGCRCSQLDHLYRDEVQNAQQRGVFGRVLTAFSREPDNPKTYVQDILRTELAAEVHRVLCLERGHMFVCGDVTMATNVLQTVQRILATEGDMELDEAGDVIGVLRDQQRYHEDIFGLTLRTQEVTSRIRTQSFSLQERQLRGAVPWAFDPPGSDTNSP

[4] = molecular target: Nitric oxide sythases; iNOS & nNOS (Homo sapiens) (UniProt P29475+P35228); test: Selectivity ratio of IC50 for recombinant human iNOS to IC50 for recombinant human nNOS

Row | Compound | Ratio IC50 [1] | IC50 [2] [µM] | IC50 [3] [µM] | Ratio IC50 [4]
1 | CN(C)CCCn1ccc2ccc(/N=C(\N)c3cccs3)cc21 | 8 |  |  | 
2 | CN(C)CCn1ccc2ccc(N=C(N)c3cccs3)cc21 |  | 1.2 | 15 | 
3 | CN(C)CCn1ccc2ccc(/N=C(\N)c3cccs3)cc21 | 13 |  |  | 50
